Measured values as given in patent publication US6352722B1, “Derivatized carbohydrates, compositions comprised thereof and methods of use thereof” (Quadrant Holdings Cambridge Limited, priority 1997, dated 2002).

Assay: Glass transition temperature (Tg) of derivatized carbohydrates, by DSC
Assay type: physicochemical
Conditions: derivatized carbohydrate alone, Tables 1-4
Text: The reaction product can be characterized structurally by methods known in the art, including, but not limited to, nuclear magnetic resonance spectroscopy (NMR) and its material science properties characterized by differential scanning calorimetry (DSC). The characteristic melting points and Tgs (glass transition temperatures) for the derivatized carbohydrates can also be determined by DSC and other methods known in the art.
The carbohydrate derivatives were routinely synthesized by standard esterification of the carbohydrate with the chloride of the desired hydrocarbon side chain under anhydrous conditions and the resulting derivatives purified by standard techniques of solvent extraction and re-crystallization. For example, trehalose octa-3,3-dimethylbutyrate was synthesized by reacting 3,3,-dimethylbutyroyl chloride with trehalose in anhydrous pyridine, followed by extraction with ether, hydrochloric acid, potassium carbonate solution and water and finally re-crystallized twice from alcohol to yield colorless, needle-like crystals (˜80% yield) of m.pt 138-140° C., αD 112°. Trehalose hexa-3,3-dimethylbutyrate (THEX) can be prepared by protecting the 6,6′-hydroxy group of trehalose with a bulky group such as trityl or t-butyldiphenylsilyl, for example by heating trehalose and trityl chloride in pyridine. […]

- Tg(° C.): 82 °C
Substance: Trehalose tetra-3,3-dimethylbutyrate
